Protein sequences, listed by entry. Tags and fused reporters are not part of them. Lines headed by an entry give the natural chain unless they say otherwise; changes in a name come on top.
UniProt P10275: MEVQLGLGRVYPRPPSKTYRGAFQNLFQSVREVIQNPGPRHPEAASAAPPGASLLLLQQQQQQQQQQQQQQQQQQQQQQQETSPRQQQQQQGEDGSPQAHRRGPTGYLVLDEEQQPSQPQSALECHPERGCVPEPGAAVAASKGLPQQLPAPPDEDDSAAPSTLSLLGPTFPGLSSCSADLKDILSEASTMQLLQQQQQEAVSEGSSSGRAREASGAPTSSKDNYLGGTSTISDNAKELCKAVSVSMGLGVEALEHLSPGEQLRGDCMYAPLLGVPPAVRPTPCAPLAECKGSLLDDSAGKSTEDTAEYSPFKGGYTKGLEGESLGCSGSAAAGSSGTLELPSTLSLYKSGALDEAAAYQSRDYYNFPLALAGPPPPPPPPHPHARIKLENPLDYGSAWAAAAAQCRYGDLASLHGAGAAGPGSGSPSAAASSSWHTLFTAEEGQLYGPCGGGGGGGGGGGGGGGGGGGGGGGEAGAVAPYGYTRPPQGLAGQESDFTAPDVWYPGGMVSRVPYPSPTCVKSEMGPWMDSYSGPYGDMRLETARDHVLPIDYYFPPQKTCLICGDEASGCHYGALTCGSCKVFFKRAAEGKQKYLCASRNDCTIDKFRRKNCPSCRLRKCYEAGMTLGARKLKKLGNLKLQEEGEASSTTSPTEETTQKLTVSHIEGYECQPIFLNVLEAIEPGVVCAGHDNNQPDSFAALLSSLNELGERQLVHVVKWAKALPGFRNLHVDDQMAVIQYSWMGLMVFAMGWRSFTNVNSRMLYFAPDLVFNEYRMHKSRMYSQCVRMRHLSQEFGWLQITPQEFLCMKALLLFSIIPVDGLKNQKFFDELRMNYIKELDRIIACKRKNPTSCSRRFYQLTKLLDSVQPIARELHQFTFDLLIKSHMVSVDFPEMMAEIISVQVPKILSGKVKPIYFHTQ

In article PMC10568492 (2023):

Target: AR protein (Homo sapiens, UniProt P10275)
Experiment: AR protein degradation in VCaP cells, Western blotting
Conditions: 24 hr

Row | Substance | % AR protein degradation in VCaP Cells (0.01 μM) | % AR protein degradation in VCaP Cells (0.1 μM) | % AR protein degradation in VCaP Cells (1 μM)
1 | 2-chloro-4-(8-(4-(4-(4-(2-(2,6-dioxopiperidin-3-yl)-1,3-dioxoisoindolin-5-yl)piperazin-1-yl)piperidin-1-yl)benzoyl)-2,8-diazaspiro[4.5]decan-2-yl)benzonitrile [Compound 20] | 37% | 20% | >95%
2 | 2-chloro-4-(8-(4-(4-((1-(2-(2,6-dioxopiperidin-3-yl)-1,3-dioxoisoindolin-5-yl)piperidin-4-yl)methyl)piperazin-1-yl)benzoyl)-2,8-diazaspiro[4.5]decan-2-yl)benzonitrile [Compound 16] | minimal effect | minimal effect | minimal effect
3 | 2-chloro-4-(8-(4-(5-(1-(2-(2,6-dioxopiperidin-3-yl)-1,3-dioxoisoindolin-5-yl)piperidin-4-yl)-1,5-diazocane-1-carbonyl)phenyl)-2,8-diazaspiro[4.5]decan-2-yl)benzonitrile [Compound 23] | 23% | 80% | 90%
4 | 2-chloro-4-(8-(4-(7-(1-(2-(2,6-dioxopiperidin-3-yl)-1,3-dioxoisoindolin-5-yl)piperidin-4-yl)-3,7-diazabicyclo[3.3.1]nonane-3-carbonyl)phenyl)-2,8-diazaspiro[4.5]decan-2-yl)benzonitrile [Compound 22] | <5% | 54% | 54%
5 | 2-chloro-4-((3S)-8-(4-(1'-(2-(2,6-dioxopiperidin-3-yl)-1,3-dioxoisoindolin-5-yl)-[3,3'-biazetidine]-1-carbonyl)phenyl)-3-methyl-2,8-diazaspiro[4.5]decan-2-yl)benzonitrile [Compound 42] | 79% | >95% | >95%
6 | 2-chloro-4-((3S)-8-(4-(4-(1-(2-(2,6-dioxopiperidin-3-yl)-1,3-dioxoisoindolin-5-yl)piperidin-4-yl)piperazine-1-carbonyl)phenyl)-3-methyl-2,8-diazaspiro[4.5]decan-2-yl)benzonitrile [Compound 41] | 78% | >95% | >95%
7 | 2-chloro-4-((3S)-8-(4-(4-((1-(2-(2,6-dioxopiperidin-3-yl)-1,3-dioxoisoindolin-5-yl)piperidin-4-yl)methyl)piperazine-1-carbonyl)phenyl)-3-methyl-2,8-diazaspiro[4.5]decan-2-yl)benzonitrile [Compound 40] | 81% | >95% | >95%
